# In PubChem BioAssay AID588453 (National Center for Advancing Translational Sciences (NCATS), 2011):
# Amino acid sequences for entries named in this document (tags omitted).
# UniProt O89049, whole entry: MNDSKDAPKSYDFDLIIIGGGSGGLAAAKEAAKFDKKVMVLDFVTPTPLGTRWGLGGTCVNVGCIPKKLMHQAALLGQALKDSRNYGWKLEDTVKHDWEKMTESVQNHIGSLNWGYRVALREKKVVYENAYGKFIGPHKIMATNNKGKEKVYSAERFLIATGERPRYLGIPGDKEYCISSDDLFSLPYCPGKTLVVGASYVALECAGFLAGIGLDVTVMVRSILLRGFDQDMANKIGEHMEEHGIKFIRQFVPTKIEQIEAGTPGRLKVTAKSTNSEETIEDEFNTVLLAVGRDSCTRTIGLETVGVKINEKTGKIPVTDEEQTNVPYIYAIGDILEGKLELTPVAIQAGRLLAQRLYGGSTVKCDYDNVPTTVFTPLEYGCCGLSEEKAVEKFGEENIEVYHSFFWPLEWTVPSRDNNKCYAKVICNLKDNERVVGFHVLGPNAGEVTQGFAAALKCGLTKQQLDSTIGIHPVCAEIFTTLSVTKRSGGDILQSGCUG
# The list shows a part of the results, in another mix than the full data. Some results for these compounds are left out of this collection, so the calls shown say nothing about other tests. Results filed as inconclusive are left out. Calls of active or inactive are those of the source. Calls follow the shape of the dose curve; as a rule, active = well fitted inhibition curve with a large enough effect; inconclusive = small, poorly fitted or top-dose-only effect; inactive = no such curve, though single readings can be large or run the other way.
# Target: Thioredoxin reductase 1, cytoplasmic (Rattus norvegicus) (UniProt O89049)
# Assay: qHTS Assay for Inhibitors of Mammalian Selenoprotein Thioredoxin Reductase 1 (TrxR1): qHTS; also: nearly all actives have a fitted effect of over 65% in size
# Conditions: recombinant rTrxR1, NADPH fluorescence consumption, selenite substrate
# [1] = at 114 µM (top of the series) unless noted
# % is scaled to controls: 0 for no effect and ±100 for the full control effect.
smiles,measurement,setting,value
CCOc1cccc(C(=O)NCC2(N(C)C)CCCCC2)c1,"activity change, negative = inhibition",[1],inactive: 19.6%
COc1ccc(C(=O)NCC2(N(C)C)CCCCC2)cc1,"activity change, negative = inhibition",[1],inactive: 9.34%
O=C(NCC1(N2CCCCC2)CCCCC1)c1cccc(Br)c1,"activity change, negative = inhibition",[1],inactive: 13.3%
Cc1cc(C(=O)NCC2(N3CCCCC3)CCCCC2)ccc1[N+](=O)[O-],"activity change, negative = inhibition",[1],inactive: 23.6%
CCN1CCCC(OC(=O)C2(O)c3ccccc3C=Cc3ccccc32)C1 (configuration not stated),"activity change, negative = inhibition",[1],inactive: 17.8% [at 57.1 µM]
O=C(NCC1(N2CCCCC2)CCCCC1)c1cc(F)c(F)cc1Cl,"activity change, negative = inhibition",[1],inactive: 19.3% [at 57.1 µM]
C=CCN1CCN(CCOC(=O)C(O)(c2ccccc2)c2ccccc2)CC1,"activity change, negative = inhibition",[1],inactive: -4.12% [at 57.1 µM]
CCCCOc1ccccc1C(=O)NCC1(N(C)C)CCCCC1,"activity change, negative = inhibition",[1],inactive: 10.9%
CN(C)C1CCCC1OC(=O)C(O)(c1ccccc1)c1ccccc1 (configuration not stated),"activity change, negative = inhibition",[1],inactive: -4.93%
CN(C)c1ccc(C(=O)NCC2(N(C)C)CCCCC2)cc1,"activity change, negative = inhibition",[1],inactive: -6.78% [at 57.1 µM]
CN(C)C1(CNC(=O)c2ccccc2[N+](=O)[O-])CCCCC1,"activity change, negative = inhibition",[1],inactive: -9%
Cc1ccccc1C(=O)NCC1(N2CCCCC2)CCCCC1,"activity change, negative = inhibition",[1],inactive: 10.2%
Cc1ccc(C(=O)NCC2(N3CCCCC3)CCCCC2)cc1,"activity change, negative = inhibition",[1],inactive: 13.8%
CN(C)C1(CNC(=O)c2ccccc2F)CCCCC1,"activity change, negative = inhibition",[1],inactive: 13.7%
COc1cc(SC)ccc1C(=O)NCC1(N(C)C)CCCCC1,"activity change, negative = inhibition",[1],inactive: 12.5%
CCN(CC)CC(C)C(C)OC(=O)C(O)(c1ccccc1)c1ccccc1 (configuration not stated),"activity change, negative = inhibition",[1],inactive: 2.41%
CN(C)C1(CNC(=O)c2cccc(Cl)c2)CCCCC1,"activity change, negative = inhibition",[1],inactive: 21.8%
CC(C)N1C(=O)CC2(CCN(CCOC(=O)C(O)(c3ccccc3)c3ccccc3)CC2)C1=O,"activity change, negative = inhibition",[1],inactive: 5.94% [at 57.1 µM]
CN1[C@@H]2CC[C@H]1CC(OC(=O)C(O)(c1ccccc1)c1ccccc1)C2 (some centres not stated),"activity change, negative = inhibition",[1],inactive: 6.29%
O=C(NCC1(N2CCCCC2)CCCCC1)c1cc([N+](=O)[O-])ccc1Cl,"activity change, negative = inhibition",[1],inactive: 12.9% [at 57.1 µM]
O=C(OCCN1CCCC1)C(O)(c1ccccc1)c1ccccc1,"activity change, negative = inhibition",[1],inactive: 20.1% [at 57.1 µM]
CC(C)Oc1ccc(C(=O)NCC2(N(C)C)CCCCC2)cc1,"activity change, negative = inhibition",at 57.1 µM (top of the series),inactive: 12.1%
same,"activity change, negative = inhibition",at 114 µM (top of the series),inactive: 19.8%
CN(C)c1cccc(C(=O)NCC2(N(C)C)CCCCC2)c1,"activity change, negative = inhibition",[1],inactive: -13.6%
COc1ccc(Br)c(C(=O)NCC2(N3CCCCC3)CCCCC2)c1,"activity change, negative = inhibition",[1],inactive: -13.7%
COc1cc(C(=O)NCC2(N(C)C)CCCCC2)cc(OC)c1OC,"activity change, negative = inhibition",[1],inactive: 25.2%
Cc1cccc(C(=O)NCC2(N(C)C)CCCCC2)c1,"activity change, negative = inhibition",[1],inactive: 28.7%
CC(C)COc1ccc(C(=O)NCC2(N(C)C)CCCCC2)cc1,"activity change, negative = inhibition",[1],inactive: 18.2%
COc1cccc(C(=O)NCC2(N3CCOCC3)CCCCC2)c1,"activity change, negative = inhibition",[1],inactive: -5.62%
O=C(OC1CN2CCC1CC2)C(CO)(c1ccccc1)c1ccccc1 (configuration not stated),"activity change, negative = inhibition",[1],inactive: -1.53%
O=C(NCC1(N2CCCCC2)CCCCC1)c1cccc(Cl)c1,"activity change, negative = inhibition",[1],inactive: 5.75%
COc1ccc(Cl)cc1C(=O)NCC1(N(C)C)CCCCC1,"activity change, negative = inhibition",[1],inactive: -11.6% [at 57.1 µM]
COc1cccc(C(=O)NCC2(N3CCCCC3)CCCCC2)c1,"activity change, negative = inhibition",[1],inactive: 11.5% [at 57.1 µM]
COc1ccc(C(=O)NCC2(N(C)C)CCCCC2)cc1Cl,"activity change, negative = inhibition",[1],inactive: 14.6%
COc1cc(C(=O)NCC2(N(C)C)CCCCC2)c([N+](=O)[O-])cc1OC,"activity change, negative = inhibition",[1],inactive: 8.57%
O=C(CBr)c1ccc(Cl)cc1,"activity change, negative = inhibition",[1],inactive: -11.7%
CN(C)C1(CNC(=O)c2ccc(Br)cc2)CCCCC1,"activity change, negative = inhibition",[1],inactive: 33.1%
